From article PMC8041708 (European Journal of Nuclear Medicine and Molecular Imaging, 2020)

Protein sequences, listed by entry. Tags and fused reporters are not part of them. Residues count along the entry.
UniProt P10636, 623-708 limits assumed: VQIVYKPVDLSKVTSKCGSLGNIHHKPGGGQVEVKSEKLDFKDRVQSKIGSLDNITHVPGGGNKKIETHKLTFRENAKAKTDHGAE
UniProt P10636, 623-695 limits assumed: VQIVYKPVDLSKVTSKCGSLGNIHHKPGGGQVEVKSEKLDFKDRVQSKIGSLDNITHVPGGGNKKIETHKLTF

Key:
Details in all cases: tested as the radiolabelled form
[1] = biological target: T1, tau deposits in AD brain tissue (Homo sapiens, UniProt P10636); assay: Autoradiography of ^3H-MK6240 on large frozen brain sections
[2] = biological target: T1, tau deposits in AD brain tissue; assay: Saturation binding assay with ^3H-MK6240 in AD brain homogenates
[3] = biological target: T1, tau deposits in AD brain tissue; assay: Regional distribution of ^3H-MK6240 binding in AD and control brain homogenates

Specific binding ([1]; AD patient A, cingulate gyrus): 99.9 fmol/mg tissue
Specific binding ([1]; AD patient A, entorhinal cortex): 90.2 fmol/mg tissue
Specific binding ([1]; AD patient A, frontal cortex): 109.2 fmol/mg tissue
Specific binding ([1]; AD patient A, fusiform gyrus): 119.0 fmol/mg tissue
Specific binding ([1]; AD patient A, hippocampus): 42.4 fmol/mg tissue
Specific binding ([1]; AD patient A, insula): 24.0 fmol/mg tissue
Specific binding ([1]; AD patient A, temporal cortex): 49.6 fmol/mg tissue
Specific binding ([1]; AD patient B, cingulate gyrus): 64.9 fmol/mg tissue
Specific binding ([1]; AD patient B, entorhinal cortex): 128.4 fmol/mg tissue
Specific binding ([1]; AD patient B, frontal cortex): 45.6 fmol/mg tissue
Specific binding ([1]; AD patient B, fusiform gyrus): 115.5 fmol/mg tissue
Specific binding ([1]; AD patient B, hippocampus): 81.0 fmol/mg tissue
Specific binding ([1]; AD patient B, insula): 32.8 fmol/mg tissue
Specific binding ([1]; AD patient B, temporal cortex): 216.6 fmol/mg tissue
Binding in control brain section ([1]; control, total and NSP sections): Almost no binding
Bmax ([2]; parietal cortex of one AD brain (case 1, EOAD)): 154.7 fmol/mg
Bmax ([2]; temporal cortices of two AD cases, ^3H-MK6240 0.05-2 nM, 90 min, 37 °C): 59.2 fmol/mg
^3H-MK6240 binding in AD brains versus control brains ([3]; frontal, parietal and temporal cortices and hippocampus, 0.5 nM, p < 0.0001): statistically significantly higher
^3H-MK6240 binding in EOAD versus LOAD and control tissue ([3]; frontal, parietal and temporal cortices, p < 0.0001): significantly higher
^3H-MK6240 specific binding in control brains ([3]; seven brain regions of all the control brains, 0.5 nM): low specific binding
^3H-MK6240 binding in AD brains ([3]; thalamus, caudate nucleus and cerebellum, 0.5 nM): No or low binding
SMILES: Nc1c(F)ccc2cnc(-n3ccc4ccncc43)cc12 [MK6240]
